Experimental data taken from PMC4973094, “Anti-cholinesterases and memory improving effects of Vietnamese Xylia xylocarpa” (Chemistry Central Journal, 2016).

Chains of the proteins cited; added tags and fusions are not shown. Residues count along the entry.
UniProt P22303, 32-614: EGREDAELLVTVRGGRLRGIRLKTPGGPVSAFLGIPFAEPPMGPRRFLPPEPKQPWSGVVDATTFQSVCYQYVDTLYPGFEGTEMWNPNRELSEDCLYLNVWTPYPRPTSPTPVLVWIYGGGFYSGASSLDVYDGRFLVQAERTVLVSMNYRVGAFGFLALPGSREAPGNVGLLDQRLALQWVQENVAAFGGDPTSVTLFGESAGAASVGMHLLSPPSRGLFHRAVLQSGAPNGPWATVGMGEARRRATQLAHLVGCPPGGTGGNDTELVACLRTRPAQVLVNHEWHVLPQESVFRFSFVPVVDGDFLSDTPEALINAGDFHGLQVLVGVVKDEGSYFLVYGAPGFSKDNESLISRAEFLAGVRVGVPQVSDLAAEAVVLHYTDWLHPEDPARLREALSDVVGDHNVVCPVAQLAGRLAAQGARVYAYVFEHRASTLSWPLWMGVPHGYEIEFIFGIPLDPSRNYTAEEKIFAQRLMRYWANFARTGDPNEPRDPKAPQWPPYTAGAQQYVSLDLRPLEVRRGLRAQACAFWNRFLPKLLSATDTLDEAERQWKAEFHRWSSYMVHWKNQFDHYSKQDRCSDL

Molecular target: T1, Acetylcholinesterase (AChE) (EC 3.1.1.7) (Homo sapiens, UniProt P22303)
T1 construct: purchased Sigma-Aldrich Pte Ltd (Nucleos, Singapore)
Assay: AChE inhibition assay (modified Ellman's method)
Type: biochemical
Experimental: Male Swiss mice (age, 8 weeks; weight, 25–27 g) were purchased from Military Medical University (Hanoi, Vietnam) and housed in a regulated environment (21 ± 2 °C, 12 h light/dark cycle, light period starting at 7 AM) with free access to food and water. Acetylcholinesterase (AChE) (EC 3.1.1.7), butyrylcholinesterase (BChE) (EC 3.1.1.8) and scopolamine hydrobromide (>98 %) were obtained from Sigma-Aldrich Pte Ltd (Nucleos, Singapore). […] Other chemicals were of the highest grade available.
The inhibitory activities of the ChEs were measured using a modified Ellman’s method. Acetylthiocholine and butyrylthiocholine were used as substrates to examine the inhibitory effect of sample on the AChE and BChE action, respectively. […] The hydrolysis of AChE or BChE was monitored at 412 nm based on the formation of yellow 5-thio-2-nitrobenzoate anion from the reaction of DTNB with thiocholine, which was released by enzymatic hydrolysis of either AChE or BChE. […] The reaction was performed in triplicate and recorded in 96-well microplates using a microplate reader (VersaMax ELISA, USA). Percent inhibition was calculated from (1–S/E) × 100, where E and S were the enzyme activities […] the tested sample, respectively.

COc1ccc2cc3[n+](cc2c1OC)CCc1cc2c(cc1-3)OCO2 [Berberine, berberine, reference compound]
IC50: 670 nM
